Source: patent US11707471B2, “ENPP1 inhibitors and their use for the treatment of cancer” (The Board of Trustees of the Leland Stanford Junior …, priority 2017, dated 2023)

Test system: 4T1 tumor
Assay: 4T1 tumor model: ENPP1 inhibition with IR, cGAMP and anti-CTLA-4
Type: in vivo, mouse

Compound `COc1cc2ncnc(N3CCC(CCP(=O)(O)O)CC3)c2cc1OC` [Compound 1, dimethyl (2-(1-(6,7-dimethoxyquinazolin-4-yl)piperidin-4-yl)ethyl)phosphonic acid] has a cure rate (20 Gy IR then compound 1 in addition to cGAMP, intratumoral) of 10% and a cure rate (IR pretreatment with compound 1 (1 mM intratumoral) and anti-CTLA-4 (200 μg i.p.)) of 10%.
